Patent US9573887B2, “Naphthalene derivative” (Daito Chemix Corporation, priority 2010, dated 2017)

The chains behind the UniProt entries cited, without tags or fusion partners.
UniProt Q01853, whole entry: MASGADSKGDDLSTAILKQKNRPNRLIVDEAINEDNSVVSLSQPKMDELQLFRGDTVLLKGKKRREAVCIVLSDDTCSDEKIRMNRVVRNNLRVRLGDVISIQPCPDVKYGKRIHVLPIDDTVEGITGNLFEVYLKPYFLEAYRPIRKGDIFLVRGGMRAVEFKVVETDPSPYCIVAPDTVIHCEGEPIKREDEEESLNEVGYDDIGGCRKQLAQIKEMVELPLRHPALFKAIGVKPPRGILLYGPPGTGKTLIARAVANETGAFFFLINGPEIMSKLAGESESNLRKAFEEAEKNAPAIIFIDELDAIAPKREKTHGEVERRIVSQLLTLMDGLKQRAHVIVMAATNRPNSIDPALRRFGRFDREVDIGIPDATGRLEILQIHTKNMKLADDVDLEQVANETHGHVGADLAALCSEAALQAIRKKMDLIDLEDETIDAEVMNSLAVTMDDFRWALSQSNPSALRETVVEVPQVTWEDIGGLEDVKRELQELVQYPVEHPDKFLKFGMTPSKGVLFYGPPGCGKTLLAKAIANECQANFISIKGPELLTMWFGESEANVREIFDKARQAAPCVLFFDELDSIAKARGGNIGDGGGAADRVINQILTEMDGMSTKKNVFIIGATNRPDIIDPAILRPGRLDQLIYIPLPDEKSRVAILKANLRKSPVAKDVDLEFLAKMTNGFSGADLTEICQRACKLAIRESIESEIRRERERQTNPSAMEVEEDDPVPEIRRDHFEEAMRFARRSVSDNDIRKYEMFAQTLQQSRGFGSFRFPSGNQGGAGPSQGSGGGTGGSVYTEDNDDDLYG

Biological target: Mouse VCP (Mus musculus, UniProt Q01853)
Experiment: ATPase activity of purified His-tagged VCP, [γ-32P]ATP, liberated phosphate by liquid scintillation
Format: biochemical
Conditions: compounds of Examples; ATPase inhibitory activity; 500 ng VCP, 100 μM ATP, 37° C., 10 minutes; tested form: Na salt

## COc1ncc(N=Nc2cc(S(=O)(=O)O)c3ccccc3c2N)cc1-c1ccccc1
  IC50: 469 nM
